# Measurements: patent US5914319A, “Antithrombotic agents” (Eli Lilly and Company, priority 1995, dated 1999)
# Experiment: Index of bioavailability (% Relative Activity from plasma TT time course)
# Type: in vivo
# Details: dose-adjusted AUC of plasma TT time course, p.o. versus i.v. bolus
row,Substance,% oral/i.v. activity (Rat) [%]
1,D-hPro-Pro-p-NHCH2 C6 H4 C(NH)NH2.HCl [Example 17],15
2,EtSO2 -D-Phe-Pro-p-NHCH2 --C6 H4 C(=NH)NH2.HCl [Example 23],12
3,1-Piq-Pro-p-NHCH2 C6 H4 C(NH)NH2.2HCl [Example 18],12
